The numbers were not newly measured in patent US7276608B2, “Tetrahydroquinoline derivatives as cannabinoid receptor modulators” (Bristol-Myers Squibb Company, priority 2003, dated 2007), which cites them from elsewhere.

The conditions of this data set: chronic administration for two weeks.

Turning to `Cc1c(C(=O)NN2CCCCC2)nn(-c2ccc(Cl)cc2Cl)c1-c1ccc(I)cc1` [AM-251], the adipose tissue mass entry is “decreased adipose tissue mass”.
